ChEMBL document CHEMBL4177521, “Therapeutic Potential of Fatty Acid Amide Hydrolase, Monoacylglycerol Lipase, and N-Acylethanolamine Acid Amidase Inhibitors” (J Med Chem, 2017)

Biological target: T1, N-acylethanolamine-hydrolyzing acid amidase (Homo sapiens, UniProt Q02083)
T1 sequence (Q02083 whole entry): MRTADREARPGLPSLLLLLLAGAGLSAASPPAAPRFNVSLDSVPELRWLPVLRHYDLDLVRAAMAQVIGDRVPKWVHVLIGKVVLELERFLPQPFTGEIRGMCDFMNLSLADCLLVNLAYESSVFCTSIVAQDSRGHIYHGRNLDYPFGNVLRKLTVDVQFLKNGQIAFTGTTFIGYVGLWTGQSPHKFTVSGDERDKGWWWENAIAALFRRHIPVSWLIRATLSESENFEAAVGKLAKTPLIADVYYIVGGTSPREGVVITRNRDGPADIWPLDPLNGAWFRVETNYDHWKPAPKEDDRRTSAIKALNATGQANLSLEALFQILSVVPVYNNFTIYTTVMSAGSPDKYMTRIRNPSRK
Assay: Inhibition of recombinant human NAAA expressed in HEK293 cells preincubated for 10 mins followed by PAMCA substrate addition after 30 mins by fluorescence assay
Format: cell-based

IC50: 63 nM
Compound: CC(C)[C@@H]1OC(=O)[C@@H]1NC(=O)OCCCCCc1ccccc1
